Data as given in patent US8722903B2, “Indazole derivatives for the treatment of HSP9O-induced diseases” (Merck Patent GmbH, priority 2006, dated 2014).

These compounds were tested against T1, Recombinant human HSP90α (Homo sapiens, UniProt P07900) (assay: Radioligand filter binding test: competitive inhibition of [3H]17AAG binding to HSP90). Conditions: [3H]17AAG 0.08 μM, HSP90 1.5 μg/assay, 22° C., 30 min.
T1 construct: host or cells: E. coli
Method: In the specific case, a radioligand filter binding test is used. The radioligand used here is tritium-labelled 17-allylaminogeldanamycin, [3H]17AAG, This filter binding test allows a targeted search for inhibitors which interfere with the ATP binding site.
Recombinant human HSP90α (E. coli expressed, 95% purity);
HEPES filter buffer (50 mM HEPES, pH 7.0, 5 mM MgCl2, BSA 0.01%) Multiscreen FB (1 μm) filter plate (Millipore, MAFBNOB 50).
The 96-well microtitre filter plates are firstly irrigated and coated with 0.1% of polyethylenimine.
The test is carried out under the following conditions:
Reaction temperature 22° C.
Reaction time: 30 min., shaking at 800 rpm
50 mM HEPES HCl, pH 7.0, 5 mM MgCl2, 0.01% (w/v) of BSA
At the end of the reaction, the supernatant in the filter plate is removed by suction with the aid of a vacuum manifold (Multiscreen Separation System, Millipore), and the filter is washed twice.
The filter plates are then measured in a beta counter (Microbeta, Wallac) with scintillator (Microscint 20, Packard).
“% of control” is determined from the “counts per minutes” values, and the IC-50 value of a compound is calculated therefrom.

IC50, 10 to 1000 nM:
Cc1cccc(Cc2n[nH]c3cc(O)c(C(=O)N(C)c4ccc5c(c4)OCCO5)cc23)c1 [Compound A143, 5-[N-(2,3-Dihydrobenzo-1,4-dioxin-6-yl)-N-methylaminocarbonyl]-3-(3-methylbenzyl)-6-hydroxy-1H-indazole]
CN(C(=O)c1cc2c(CC3CCCC3)n[nH]c2cc1O)c1ccc(N2CCOCC2)cc1 [Compound A262, 5-[N-(4-Morpholin-4-ylphenyl)-N-methylaminocarbonyl]-3-cyclopentylmethyl-6-hydroxy-1H-indazole]
Cc1cccc(Cc2n[nH]c3cc(O)c(C(=O)N(C)c4ccc(Br)cc4)cc23)c1 [Compound A192, 5-[N-(4-Bromophenyl)-N-methylaminocarbonyl]-3-(3-methylbenzyl)-6-hydroxy-1H-indazole]
COc1ccc(N(C)C(=O)c2cc3c(Cc4cccc(C)c4)n[nH]c3cc2O)cc1Cl [Compound A147, 5-[N-(3-Chloro-4-methoxyphenyl)-N-methylaminocarbonyl]-3-(3-methylbenzyl)-6-hydroxy-1H-indazole]
COc1ccc(N(C)C(=O)c2cc3c(Cc4cccc(C)c4)n[nH]c3cc2O)cc1 [Compound A130, 5-[N-(4-Methoxyphenyl)-N-methylaminocarbonyl]-3-(3-methylbenzyl)-6-hydroxy-1H-indazole]
CCCCc1n[nH]c2cc(O)c(C(=O)N(C)c3ccc(N4CCOCC4)cc3)cc12 [Compound A173, 5-[N-(4-Morpholin-4-ylphenyl)-N-methylaminocarbonyl]-3-butyl-6-hydroxy-1H-indazole]
CCCc1n[nH]c2cc(O)c(C(=O)N(C)c3ccc(N4CCOCC4)cc3)cc12 [Compound A176, 5-[N-(4-Morpholin-4-ylphenyl)-N-methylaminocarbonyl]-3-propyl-6-hydroxy-1H-indazole]
CC(=O)c1ccc(N(C)C(=O)c2cc3c(Cc4cccc(C)c4)n[nH]c3cc2O)cc1 [Compound A148, 5-[N-(4-Acetylphenyl)-N-methylaminocarbonyl]-3-(3-methylbenzyl)-6-hydroxy-1H-indazole]
Cc1cccc(Cc2n[nH]c3cc(O)c(C(=O)N(C)c4ccc(CNS(C)(=O)=O)cc4)cc23)c1 [Compound A134, 5-[N-(4-Methylsulfonylaminomethylphenyl)-N-methylaminocarbonyl]-3-(3-methylbenzyl)-6-hydroxy-1H-indazole]
